## Apparent affinities of Ab-14 variants for a coronavirus HR2 peptide

Reference: Li et al. 2023, doi:10.1038/s41467-023-39022-2. File: FLAb, binding data.

All variants were tested on one target, the spike HR2 peptide PDVDLGDISGINAS (SARS-CoV-2).

Parent scFv Ab-14: VH joined to VL by a 15-residue (Gly4Ser)3 linker. Changes lie in the heavy chain CDRs alone.
VH: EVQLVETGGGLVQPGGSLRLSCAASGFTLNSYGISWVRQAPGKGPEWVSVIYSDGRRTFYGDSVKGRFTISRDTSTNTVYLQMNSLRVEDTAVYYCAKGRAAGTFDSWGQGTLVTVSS
VL: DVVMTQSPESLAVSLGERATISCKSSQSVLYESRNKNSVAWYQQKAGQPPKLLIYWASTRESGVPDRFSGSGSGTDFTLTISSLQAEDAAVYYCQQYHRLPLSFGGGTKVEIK

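The starting antibody came from a phage panning campaign against this peptide. These sequences belong to a second round, designed from the earlier measurements on random variants of the parent. Several design methods are mixed in this list. AlphaSeq pools MATa yeast showing the antibodies with MATalpha yeast showing the peptide. Pairs that bind mate more often; barcode pairs of the diploids are counted by sequencing. Scores were corrected for input abundance and mapped to Kd with protein pairs of known affinity run in the same pool. The assay was run in six technical replicates.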

Variants are written as CDR1, CDR2 and CDR3 of the heavy chain (limits as in the source). Parent: GFTLNSYGIS, VIYSDGRRTFYGDSVK, GRAAGTFDS. Affinities are written as log10 Kd with Kd in nM; a lower number is a better binder. Replicates are averaged; those with no signal do not enter the mean. An entry "not detected" has no value in the source: the pair was not observed among the diploids in any replicate. This suggests poor binding but is not conclusive. A sequence measured in both rounds can read differently, since the two assays cover different ranges. In the paper, a design with two or fewer of six values counts as a poor binder. Background: pairings of all heavy chain designs with three empty control strains gave a value in 1% of cases (median 2.08, 5th percentile 0.84). Values in that range, when seen in few replicates, are hard to tell from nonspecific mating.

CDR-H1 | CDR-H2 | CDR-H3 | mean log10 Kd (nM) | detected
GEDLLEYGIS | VIYADGKRVAYTNAVK | GNEAGFFTL | 2.66 | 1/6
GESLDQYGIS | VIYADGVRTSYTNSVK | GVHAGTFMQ | not detected | 0/6
GFDLNEYGIS | VIYADGVRTAYSDSVK | GQNAGTFDT | 0.16 | 6/6
GFTLESYGIS | VIYSDGRRTFYDDSVK | GQSAGTFDS | 1.78 | 4/6
GFSLNSYGIS | VIYSDGRRTFYQDSVK | GRTAGTFDR | 0.83 | 6/6
GFSLNEYGIS | VIYSDGRRTFYGDSVK | GKTAGTFDT | -0.54 | 6/6
GFDLNSYGIS | VIYSDGRRTFYGDDVK | GRAAGHFDS | not detected | 0/6
GFDLNEYGIS | VIYADGMRTFYADSVK | GNVAGTFDT | -0.62 | 6/6
GFTLNSYGIS | VIYSDGRRTFYSDSVK | GLAVGTFDS | not detected | 0/6
GFDLQEYGIS | VIYADGARKSYTNSVK | GVWGTTMSV | not detected | 0/6
GFDLNEYGIS | VIYADGLRTSYADSVK | GQTAGTFDQ | 0.43 | 6/6
GFDIDEYGIS | VIYADGRRTFYADSVK | GTNAGTFDM | -0.52 | 6/6
GFTLNSYGVS | VIYSDGRRTFYGDSVK | GRAAGTFDS | not detected | 0/6
GDSLEEYGIS | VIYADGSRTAYQESVK | GLYAGMLDV | not detected | 0/6
GFDLNEYGIS | VIYADGKRTFYADNVK | GEVAGTFDV | -0.52 | 6/6
GFNLDEYGIS | VIYADGRRTFYIDSVK | GETAGTFDS | -0.22 | 6/6
GFDLNSFGIS | VIYSDGRRTFYLDSVK | GQVAGTFDS | 0.23 | 6/6
GFNLNEYGIS | VIYSDGRRTQYSDSVK | GRAAGTFDS | 1.17 | 6/6
GFDLDEYGIS | VIYADGLRQVYQDNVK | GVGFTTFTD | not detected | 0/6
GFDLNEYGIS | VIYADGMRTAYANSVK | GEVAGTFDI | -0.29 | 6/6
GFNLNSYGIS | VIYSDGRRTFYGDKVK | GKEAGTFDS | 0.51 | 6/6
GFDLNEYGIS | VIYADGVRTAYTDSVK | GEVAGTFDL | 0.02 | 6/6
GFTLNSYGIS | VIYSDGHRTFYQDSVK | GRAAGTFDS | 3.40 | 1/6
GFDLNSYGIS | VIYSDGRRTFYFDSVK | GRAAGVFDS | not detected | 0/6
GAQLNSYGIS | VIYSDGRRTFYGDSVK | GRPAGTFDS | not detected | 0/6
GFQLNEYGIS | VIYSDGRRTFYADSVK | GRTAGTFDS | -0.18 | 6/6
GFTLNEYGIS | VIYSDGRRTVYGDSVK | GRAAGTFDQ | 1.01 | 3/6
GFHLDEFGIS | VIYADGLRSSYADDVK | GEMTGGFVV | not detected | 0/6
GFDLNEYGIS | VIYADGHRTFYSNNVK | GGQGGIGLS | not detected | 0/6
GFTLNEYGIS | VIYSDGRRTFYMDDVK | GRTAGTFDS | 0.06 | 6/6
GFTLNSYGIS | VIYRDGRRTFYGDSVK | GRAAGTFDS | not detected | 0/6
GFTLNDYGIS | VIYSDGRRTFYIDSVK | GQAAGTFDS | 0.51 | 6/6
GFNLDEYGVS | VIYADGNRTQYTENVK | GTNWGAVDL | not detected | 0/6
GFDLNEYGIS | VIYADGMRTAYADTVK | GNVAGTFDT | 0.61 | 6/6
GFRLDSYGIS | VIYSDGIRTFYGDSVK | GRDAGTFDS | 2.14 | 2/6
GFSLNSYGIS | VIYSDGRRTFYIDSVK | GKEAGTFDS | not detected | 0/6
GFDLDQYGIS | VIYADGKRSYYADSVK | GHEGGILYV | not detected | 0/6
GFDLNEYGIS | VIYADGKRTFYADSVK | GQAAGTFDT | -0.45 | 6/6
GFNLNSYGIS | VIYSDGRRTFYGDSVK | GWVAGTFDS | 1.67 | 4/6
GFTLNSYGIS | VIYSDGRRTFYIFSVR | GRKAGTFPS | not detected | 0/6
GFDLDEYGIS | VIYADGMRTAYSDSVK | GETAGTFDV | 0.03 | 6/6
GFDLNEYGIS | VIYADGRRTSYADSVK | GNLAGTFDS | -0.47 | 6/6
GFDLNEYGIS | VIYADGSRTAYADSVK | GQVAGTFDI | -0.50 | 6/6
GFSLNSYGIS | VIYSDGRRTFYGDHVK | GRTAGTFDA | 1.06 | 6/6
GFTLNSYGIS | VIYSDGMRTFYVDSVK | GRTAGTFDS | 2.84 | 1/6
GFTMNSYGIS | VIYADGRRTFYGDSVK | GRAAGTPDS | not detected | 0/6
GFNLNEYGIS | VIYADGMRTNYADKVK | GGLDVQEGY | not detected | 0/6
GFSLNSYGIS | VIYSDGRRTFYKDSVK | GQEAGTFDS | 0.15 | 6/6
GFSIDEYGIS | VIYADGARASYAPKVK | GQQAGDLIE | not detected | 0/6
GFTLNDYGIS | VIYSDGRRTFYQDAVK | GNAAGTFDS | 1.48 | 6/6
GFDLNTYGIS | VIYSDGKRTFYGDSVK | GRTAGTFDS | -0.20 | 6/6
GFHLNSYGIS | VIYSDGRRTFYQDSVK | GREAGTFDS | 0.67 | 6/6
GFTLNSYGIS | VIYSDGKRTFYSDDVK | GQAAGTFDA | 0.87 | 5/6
GFDLNEYGIS | VIYADGRRTAYIDSVK | GEVAGTFDA | -0.34 | 6/6
MFELNSYGIS | VIYSDGRRTFYGDSVK | GQEAGTFDS | 1.90 | 1/6
GFTLNSYGIS | VIYSDGRRTFYGDSFK | GAAAGKFDS | not detected | 0/6
GFTLNSYGIS | VIYADGRRTFYGDSVK | GKAAGTFDQ | -0.47 | 6/6
GFTLTSYGIS | VIYSDGRRTFYGDSVK | GSAAGTNDS | not detected | 0/6
GFDLNEYGIS | VIYADGRRTAYRDSVK | GEAAGTFDQ | -0.24 | 6/6
GFDLNSYGIS | VIYSDGRRTFYADDVK | GKAAGTFDS | 0.11 | 6/6
GFNLNSYGIS | VIYSDGRRTFYADSVK | GRAAGTFDT | 1.30 | 6/6
GFSLNQYGIS | VIYSDGRRTFYGDSVK | GRQAGTFDS | -0.13 | 6/6
GFDLNEYGIS | VIYADGKRTAYADSVK | GQTAGTFDV | -0.74 | 6/6
GFTLNSYGIS | VIYSDGRRTFYQDSVK | GQNAGTFDS | not detected | 0/6
GFDLNEYGIS | VIYADGRRTFYSDSVK | GEAAGTFDS | -0.28 | 6/6
GKGLDEYGVS | VIYADGKRHQYAEDVK | GGLAGQFDV | not detected | 0/6

Excerpt, the first 7 entries:

CDR-H1	CDR-H2	CDR-H3	mean log10 Kd (nM)	detected
GEDLLEYGIS	VIYADGKRVAYTNAVK	GNEAGFFTL	2.66	1/6
GESLDQYGIS	VIYADGVRTSYTNSVK	GVHAGTFMQ	not detected	0/6
GFDLNEYGIS	VIYADGVRTAYSDSVK	GQNAGTFDT	0.16	6/6
GFTLESYGIS	VIYSDGRRTFYDDSVK	GQSAGTFDS	1.78	4/6
GFSLNSYGIS	VIYSDGRRTFYQDSVK	GRTAGTFDR	0.83	6/6
GFSLNEYGIS	VIYSDGRRTFYGDSVK	GKTAGTFDT	-0.54	6/6
GFDLNSYGIS	VIYSDGRRTFYGDDVK	GRAAGHFDS	not detected	0/6